SMILES strings stand for the structures.

The experiment relates to HuH7 cells, BMP response element (BRE) luciferase reporter, BMP6 stimulated. Put plainly: BMP signaling reporter gene assay. In kind it is cell-based. The conditions noted are these: Homo sapiens, Huh-7; BMP6 100 ng/ml; read-out: MSD HuH7 cell BMP reporter IC50.

Consider `CCC(CC)n1cc(-c2cncc(-c3ccc4c(c3)CC(=O)N4C)c2)ccc1=O` [Example 4, 1-methyl-5-(6′-oxo-1′-(pentan-3-yl)-1′,6′-dihydro-[3,3′-bipyridin]-5-yl)indolin-2-one], for which the IC50 was found to be 1050 nM.
`CCC(C)n1cc(-c2cncc(-c3ccc4c(c3)CC(=O)N4C)c2)ccc1=O` (stereo not drawn) [Example 7, 5-(1′-(sec-butyl)-6′-oxo-1′,6′-dihydro-[3,3′-bipyridin]-5-yl)-1-methylindolin-2-one]: the IC50 worked out at 210 nM.
`CC(C)n1cc(-c2cncc(-c3ccc4c(c3)N(C)C(=O)C4)c2)ccc1=O` [Example 26, 6-(1′-Isopropyl-6′-oxo-1′,6′-dihydro-[3,3′-bipyridin]-5-yl)-1-methylindolin-2-one]: the IC50 amounted to 700 nM.
The figure for `COCCN1C(=O)Cc2cc(-c3cncc(-c4ccc(=O)n(C(C)C)c4)c3)cnc21` [Example 27, 5-(1′-Isopropyl-6′-oxo-1′,6′-dihydro-[3,3′-bipyridin]-5-yl)-1-(2-methoxyethyl)-1H-pyrrolo[2,3-b]pyridin-2(3H)-one] is 2350 nM; for `CC(C)n1cc(-c2cncc(-c3ccc4c(c3)CCC(=O)N4C)c2)ccc1=O` [Example 28, 6-(1′-Isopropyl-6′-oxo-1′,6′-dihydro-[3,3′-bipyridin]-5-yl)-1-methyl-3,4-dihydroquinolin-2(1H)-one] it is 40 nM.
In the case of `COCCN1C(=O)Cc2cc(-c3cncc(-c4ccc(=O)n(C(C)C)c4)c3)ccc21` [Example 29, 5-(1′-Isopropyl-6′-oxo-1′,6′-dihydro-[3,3′-bipyridin]-5-yl)-1-(2-methoxyethyl)indolin-2-one] it was 240 nM.

The term IC50 denotes the midpoint of a concentration-inhibition curve.

Values taken from patent US11160797B2, “Pyridinone derivatives and their use as selective ALK-2 inhibitors” (NOVARTIS AG, priority 2017, dated 2021).
